Literature values, collected in US10167256B2, “Psychotrophic agents and uses thereof” (LB PHARMACEUTICALS INC., priority 2016, dated 2019).

Amino acid sequences for entries named in this document (tags omitted). Chains listed by the source or under a name are the forms on record and can include a tag or linker.
UniProt P34969, other isoform, or with tags, fused parts or gaps: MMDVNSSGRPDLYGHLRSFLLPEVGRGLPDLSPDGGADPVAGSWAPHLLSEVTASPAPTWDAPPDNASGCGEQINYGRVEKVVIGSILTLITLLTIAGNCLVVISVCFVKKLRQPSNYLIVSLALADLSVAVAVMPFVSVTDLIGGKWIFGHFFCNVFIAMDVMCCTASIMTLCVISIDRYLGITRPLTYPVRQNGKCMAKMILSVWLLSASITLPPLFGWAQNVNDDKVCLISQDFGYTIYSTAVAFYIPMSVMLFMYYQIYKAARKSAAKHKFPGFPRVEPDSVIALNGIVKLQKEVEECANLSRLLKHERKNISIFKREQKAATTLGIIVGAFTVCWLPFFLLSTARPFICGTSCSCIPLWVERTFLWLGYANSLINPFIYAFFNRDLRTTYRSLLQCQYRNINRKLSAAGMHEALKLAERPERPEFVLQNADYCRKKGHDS

Target: HT7a receptor (Homo sapiens (Human), UniProt P34969)
Conditions: cited from earlier work

In the case of `CCN1CCCC1CNC(=O)c1cc(S(=O)(=O)CC)c(N)cc1OC` (stereo not shown) [Amisulpride, 4-amino-N-(((1-ethyl-2-pyrrolidinyl)methyl)-5-(ethylsulfonyl))-2-methoxybenzamide], the Ki is listed as “low double digit”.
